Drawing on US10000743B2, “2-deoxy-scyllo-inosose reductase” (Asahi Kasei Chemicals Corporation, priority 2013, dated 2018), this text covers Km for one substance.

This data set deals with NADH. Briefly: purified protein, by the assay type. The note with it: other: 0.1M Tris-HCl, pH 8.0.

Consider “DOI reductase from Burkholderia terrae strain AKC-020 (Paraburkholderia terrae)”, for which the Km – broadly, the substrate concentration at which the rate is half of its maximum – is on record as 0.04 mM (0.1M Tris-HCl, pH 8.0) mM.
